Assay results as given in article PMC6009943, “One-pot three-component synthesis of novel spirooxindoles with potential cytotoxic activity against triple-negative breast cancer MDA-MB-231 cells” (Journal of Enzyme Inhibition and Medicinal Chemistry, 2017).

System: WI-38 cells
Assay: In vitro cytotoxic activity, WI-38 cells (MTT)
Type: cell-based, human
Conditions: WI-38 versus MDA-MB-231
Protocol: WI-38 cells ([…]), were obtained from American Type Culture Collection. The cells were propagated in DMEM supplemented with 10% heat-inactivated FBS (Hyclone), 10 μg/ml of insulin (Sigma), and 1% penicillin-streptomycin. All of the other chemicals and reagents were from Sigma, or Invitrogen. Cytotoxicity was determined using MTT assay following a reported procedure.

N#CC1=C(c2ccccc2)Nc2c(c(-c3cccs3)nn2-c2ccccc2)C12C(=O)Nc1ccc(Cl)cc12 (stereo not shown) [Compound 6e, 5-Chloro-2-oxo-1',6'-diphenyl-3'-(thiophen-2-yl)-1',7'-dihydrospiro[indoline-3,4'-pyrazolo[3,4-b]pyridine]-5'-carbonitrile]
Selectivity Index: 6.8
